From the supplement of paper PMC12669032
This list holds what a sample rich in hits left over.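 How the source made its calls: active = AUC reduced over 20% with Padj below 0.05 in at least 2 of 3 replicates; inactive = otherwise.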

What follows are compounds tested on Coprococcus comes (assay: growth AUC relative to DMSO control (median of replicates) (fraction); higher = more growth (less inhibition), active = hit call of the paper). Details: 20 µM; 24 h.
Experimental: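 Anaerobic monocultures of 22 human gut bacterial strains grown at 37 °C in mGAM with 20 µM compound (1% DMSO), starting OD600 0.05. OD600 read hourly for 24 h. Value is the median of 3 biological replicates. Hit: >20% AUC reduction and Padj<0.05 in at least 2 of 3 replicates.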

Q: With `CCOP(=S)(OCC)Oc1ncn(-c2ccccc2)n1` as the compound, how does the “growth AUC” value read?
A: inactive: 1

Q: `CCOc1nc(C(Cl)(Cl)Cl)ns1` was tested. Which “growth AUC” value did it give?
A: inactive: 1.02
